In test [1] the target is T1, human CD3 (human, UniProt P07766 23-207). The test can be described thus: cell-based or functional assay.
A further test addresses T2, Human CD38 (human, UniProt P28907 1-300).
T2 construct: whole, on cells; the assays used the protein on tumor cells
The test can be described thus: flow cytometry on CD38 positive tumor cells (MM.1S or RPMI 8226). Background: In flow cytometry, cells or beads pass a laser one at a time.

In the next test the target is T3, monkey CD3 (monkey).
T3 construct: whole, on cells; also called CD3 on monkey CD3 positive T cells
The test can be described thus: flow cytometry on monkey CD3 positive T cells.

Test [2] addresses T1, human CD3. In words: flow cytometry on human CD3 positive T cells.

Changes are numbered by the printed parent chain.

By EC50 is commonly meant the midpoint of the concentration-response curve.

B1: Y150-F8-9 (bispecific antibody, human IgG1, kappa)
scFv: QVQLVESGGGVVQPGRSLRLSCAASGFTFSTYAMNWVRQAPGKGLEWVARIRSKYNNYATYYADSVKDRFTISRDDSKNTLYLQMNSLRAEDTAVYYCARHGNFGNSYVSWFAYWGQGTLVTVSSGGGGSGGGGSGGGGSQTVVTQEPSLTVSPGGTVTLTCRSSTGAVTTSNYANWVQQKPGQAPRGLIGGTNKRAPGVPARFSGSLLGGKAALTLSGVQPEDEAEYYCALWYSNLWVFGGGTKVEIKGRGRGSDKTHTCPPSPAPPVAGPSVFLFPPKPKDTLMISRTPEVTCVVVDVSHEDPEVQFNWYVDGVEVHNAKTKPREEQFNSTFRVVSVLTVVHQDWLNGKEYKCKVSNKGLPAPIEKTISKTKGQPREPQVCTLPPSRDELTKNQVSLSCAVKGFYPSDIAVEWESNGQPENNYKTTPPVLDSDGSFFLVSKLTVDKSRWQQGNVFSCSVMHEALHNHYTQKSLSLSPGK
heavy: not shown
light: not shown
In the case of B1, in the test with human CD3 [1], the “EC50 values of T-cell activation (CD3 and CD69 dual positive cells; human PBMC with MC/CAR target cells 5:1, 48 h)” value (“EC50 values of T-cell activation” for short) was 0.00096 nM. Besides, the concentration giving a half-maximal response (EC50) with Human CD38 is 51.9 nM.

B2: Y150-F8-14 (bispecific antibody, human IgG1, kappa)
scFv: B1 scFv with A113L, G188A
heavy: not shown
light: not shown
In the case of B2, the EC50 in the test with Human CD38 was found to be 49.9 nM; in the test with monkey CD3, 598 nM; with human CD3 [2], 565 nM.

B3: Y150-F8-12 (bispecific antibody, human IgG1, kappa)
scFv: B1 scFv with A113V, G188A
heavy: not shown
light: not shown
With B3, the “EC50 values of T-cell activation” value with human CD3 [1] is at least 6.53 nM. Further, the EC50 in the test with Human CD38 was 47.9 nM; with monkey CD3 it was 607 nM; in the test with human CD3 [2], 561 nM.

B4: Y150-F8-10 (bispecific antibody, human IgG1, kappa)
scFv: B1 scFv with F112A, V178F, S264C, D304A
heavy: not shown
light: not shown
Consider B4, for which the “EC50 values of T-cell activation” value with human CD3 [1] is 0.0141 nM. Besides, the EC50 with Human CD38 is 42.7 nM; with monkey CD3, 440 nM; with human CD3 [2], 416 nM.
